The numbers were not newly measured in PubChem BioAssay AID1811 (Shanghai Institute of Organic Chemistry, 2009), which cites them from elsewhere.

The test system of the data set is chitinase b. As to the kind of experiment: PubChem AID 1811. The settings on record: PDB complex binding affinities from literature.

This is one part of the list. Calls of active or inactive are those of the source. Where no limit is named, active and inactive come without a cut-off here.

Take `O=C[C@H]1CCCN1`: the call was active.
